Laboratory results from BindingDB's records for 11585444.

Amino acid sequences for entries named in this document (tags omitted).
UniProt P41143, whole entry, looked up: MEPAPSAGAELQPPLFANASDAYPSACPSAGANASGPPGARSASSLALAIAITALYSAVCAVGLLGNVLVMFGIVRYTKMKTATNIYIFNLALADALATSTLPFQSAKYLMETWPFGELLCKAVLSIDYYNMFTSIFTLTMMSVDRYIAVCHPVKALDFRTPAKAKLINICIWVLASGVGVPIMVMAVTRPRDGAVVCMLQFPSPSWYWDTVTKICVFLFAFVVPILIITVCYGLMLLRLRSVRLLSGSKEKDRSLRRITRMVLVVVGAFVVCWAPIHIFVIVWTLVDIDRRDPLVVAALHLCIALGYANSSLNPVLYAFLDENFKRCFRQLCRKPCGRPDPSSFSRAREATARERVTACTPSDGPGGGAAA

Target: Delta-type opioid receptor (Homo sapiens, UniProt P41143)
Assay: Binding affinity against delta opiate receptor using [3H]DPDPE

| SMILES | IC50 [µM] |
| --- | --- |
| Fc1ccc(C(OCCN2CCN(C/C=C/c3ccccc3)CC2)c2ccc(F)cc2)cc1 | > 10 |
| Fc1ccc(C(OCCN2CCN(CCCc3ccccc3)CC2)c2ccc(F)cc2)cc1 | > 10 |
